The values below are quoted from earlier work in PubChem BioAssay AID977608.

SMILES strings stand for the structures. Shown are results outside the selection of hits, which stands elsewhere. Activity calls are given as the source filed them. The limit is not given here; nearly all actives have IC50 up to about 1400 µM.

The nature of the data set: literature IC50 values for PDB complexes, PDB-derived complexes (AID 977608). The following applies: PDB protein-ligand complexes; protein: E3 ubiquitin-protein ligase XIAP, PDB entry 4kju unless noted.
The IC50 is the midpoint of a concentration-inhibition curve. As to `CC1=C(C(=O)Nc2ccc3[nH]ncc3c2)[C@H](c2ccc(F)cc2)NC(=O)N1`, the IC50 is active: 250 nM [protein: Beta-adrenergic receptor kinase 1 GRK2, PDB entry 4pnk].

As for `CN[C@@H](C)C(=O)N[C@H]1CN(C(=O)c2ccc(N)cc2)c2ccccc2N(Cc2c(OC)ccc3ccccc23)C1=O`, the concentration for half-maximal inhibition (IC50) was active: 6 nM.
